Test results published in patent publication US9902714B2, “Quinoxaline derivatives useful as FGFR kinase modulators” (ASTEX THERAPEUTICS LTD, priority 2014, dated 2018).

Sequences of proteins named here, by UniProt entry; tags and fusion partners are left off. Residues count along the entry.
UniProt P35968, 20-1356: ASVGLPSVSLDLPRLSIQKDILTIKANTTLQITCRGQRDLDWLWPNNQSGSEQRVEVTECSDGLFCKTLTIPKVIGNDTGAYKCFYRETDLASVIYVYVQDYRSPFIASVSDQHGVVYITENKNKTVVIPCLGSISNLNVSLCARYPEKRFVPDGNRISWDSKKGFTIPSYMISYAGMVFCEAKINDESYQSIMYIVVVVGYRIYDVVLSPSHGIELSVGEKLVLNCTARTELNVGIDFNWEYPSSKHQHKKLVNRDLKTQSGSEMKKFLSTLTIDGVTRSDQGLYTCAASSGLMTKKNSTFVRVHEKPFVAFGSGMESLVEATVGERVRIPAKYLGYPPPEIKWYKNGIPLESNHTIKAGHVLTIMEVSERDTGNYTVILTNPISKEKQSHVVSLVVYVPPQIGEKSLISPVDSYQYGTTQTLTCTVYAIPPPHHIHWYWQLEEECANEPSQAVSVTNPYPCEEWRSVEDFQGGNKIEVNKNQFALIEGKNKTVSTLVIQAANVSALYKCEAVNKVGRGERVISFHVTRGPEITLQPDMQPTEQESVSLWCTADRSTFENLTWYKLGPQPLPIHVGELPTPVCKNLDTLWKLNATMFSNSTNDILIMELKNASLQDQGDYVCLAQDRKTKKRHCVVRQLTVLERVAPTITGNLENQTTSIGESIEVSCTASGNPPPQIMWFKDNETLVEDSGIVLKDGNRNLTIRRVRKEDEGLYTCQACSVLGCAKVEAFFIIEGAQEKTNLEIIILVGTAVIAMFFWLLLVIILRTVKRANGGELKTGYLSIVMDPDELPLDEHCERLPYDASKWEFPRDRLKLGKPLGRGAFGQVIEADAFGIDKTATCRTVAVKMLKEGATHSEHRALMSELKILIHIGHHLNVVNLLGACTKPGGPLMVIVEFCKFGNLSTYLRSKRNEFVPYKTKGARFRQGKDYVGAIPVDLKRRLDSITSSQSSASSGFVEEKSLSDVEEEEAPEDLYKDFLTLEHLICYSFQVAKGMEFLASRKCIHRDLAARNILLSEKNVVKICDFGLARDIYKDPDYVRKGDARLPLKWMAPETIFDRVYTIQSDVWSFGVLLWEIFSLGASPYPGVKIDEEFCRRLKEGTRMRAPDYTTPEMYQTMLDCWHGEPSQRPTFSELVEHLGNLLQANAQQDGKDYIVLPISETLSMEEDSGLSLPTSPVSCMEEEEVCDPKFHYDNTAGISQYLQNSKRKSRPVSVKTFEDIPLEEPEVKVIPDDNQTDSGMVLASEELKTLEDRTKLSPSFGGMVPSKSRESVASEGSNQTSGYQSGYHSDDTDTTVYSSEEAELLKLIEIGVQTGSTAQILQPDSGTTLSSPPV

Target: KDR (h) (VEGFR2) (Homo sapiens (Human), UniProt P35968)
Test: KDR (VEGFR2) (enzymatic assay), TR-FRET
Format: biochemical
Conditions: 3 μM ATP; read-out: VEGFR KDR pIC50 (converted)

## COc1cc(OC)c2c(c1)N(c1ccc3ncc(-c4cnn(C)c4)nc3c1)CCN(C(C)C)C2 [Compound 1]
  IC50: 2.51 µM
